Measured values as given in patent US20260382623A1, “NOVEL COMPOUND FOR INHIBITING PROTEIN KINASES AND PHARMACEUTICAL COMPOSITION COMPRISING SAME” (published 2026).

Amino acid sequences for entries named in this document (tags omitted). Residues count along the entry.
UniProt Q02763, 23-1124 limits assumed: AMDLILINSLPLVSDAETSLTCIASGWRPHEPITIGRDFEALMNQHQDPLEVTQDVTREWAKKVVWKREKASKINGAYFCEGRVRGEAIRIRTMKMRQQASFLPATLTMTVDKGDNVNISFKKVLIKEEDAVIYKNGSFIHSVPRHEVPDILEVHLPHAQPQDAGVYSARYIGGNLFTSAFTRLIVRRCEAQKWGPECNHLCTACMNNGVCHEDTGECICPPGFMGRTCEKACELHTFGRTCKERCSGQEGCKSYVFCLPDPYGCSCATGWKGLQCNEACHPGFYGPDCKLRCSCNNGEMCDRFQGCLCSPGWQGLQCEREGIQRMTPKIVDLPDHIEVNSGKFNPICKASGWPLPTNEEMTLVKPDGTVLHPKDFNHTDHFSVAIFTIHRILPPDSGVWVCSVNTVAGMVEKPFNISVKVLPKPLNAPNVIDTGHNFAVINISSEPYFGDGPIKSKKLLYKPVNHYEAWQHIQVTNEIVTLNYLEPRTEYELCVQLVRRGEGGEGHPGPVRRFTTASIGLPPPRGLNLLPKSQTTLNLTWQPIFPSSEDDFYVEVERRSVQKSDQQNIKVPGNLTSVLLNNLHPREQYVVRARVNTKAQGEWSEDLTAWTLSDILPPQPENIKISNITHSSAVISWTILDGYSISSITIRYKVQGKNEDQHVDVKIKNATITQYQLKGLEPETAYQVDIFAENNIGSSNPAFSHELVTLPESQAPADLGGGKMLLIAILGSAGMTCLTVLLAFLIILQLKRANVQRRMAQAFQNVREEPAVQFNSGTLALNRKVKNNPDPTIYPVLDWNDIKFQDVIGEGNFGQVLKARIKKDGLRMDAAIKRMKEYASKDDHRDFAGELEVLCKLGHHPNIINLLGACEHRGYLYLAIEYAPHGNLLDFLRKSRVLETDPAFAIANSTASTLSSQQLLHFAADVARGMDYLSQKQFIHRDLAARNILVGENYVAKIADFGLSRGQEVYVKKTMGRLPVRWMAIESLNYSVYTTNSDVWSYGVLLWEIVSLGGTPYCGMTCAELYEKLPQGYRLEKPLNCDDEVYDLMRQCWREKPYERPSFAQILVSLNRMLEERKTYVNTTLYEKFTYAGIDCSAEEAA
UniProt P51957, whole entry: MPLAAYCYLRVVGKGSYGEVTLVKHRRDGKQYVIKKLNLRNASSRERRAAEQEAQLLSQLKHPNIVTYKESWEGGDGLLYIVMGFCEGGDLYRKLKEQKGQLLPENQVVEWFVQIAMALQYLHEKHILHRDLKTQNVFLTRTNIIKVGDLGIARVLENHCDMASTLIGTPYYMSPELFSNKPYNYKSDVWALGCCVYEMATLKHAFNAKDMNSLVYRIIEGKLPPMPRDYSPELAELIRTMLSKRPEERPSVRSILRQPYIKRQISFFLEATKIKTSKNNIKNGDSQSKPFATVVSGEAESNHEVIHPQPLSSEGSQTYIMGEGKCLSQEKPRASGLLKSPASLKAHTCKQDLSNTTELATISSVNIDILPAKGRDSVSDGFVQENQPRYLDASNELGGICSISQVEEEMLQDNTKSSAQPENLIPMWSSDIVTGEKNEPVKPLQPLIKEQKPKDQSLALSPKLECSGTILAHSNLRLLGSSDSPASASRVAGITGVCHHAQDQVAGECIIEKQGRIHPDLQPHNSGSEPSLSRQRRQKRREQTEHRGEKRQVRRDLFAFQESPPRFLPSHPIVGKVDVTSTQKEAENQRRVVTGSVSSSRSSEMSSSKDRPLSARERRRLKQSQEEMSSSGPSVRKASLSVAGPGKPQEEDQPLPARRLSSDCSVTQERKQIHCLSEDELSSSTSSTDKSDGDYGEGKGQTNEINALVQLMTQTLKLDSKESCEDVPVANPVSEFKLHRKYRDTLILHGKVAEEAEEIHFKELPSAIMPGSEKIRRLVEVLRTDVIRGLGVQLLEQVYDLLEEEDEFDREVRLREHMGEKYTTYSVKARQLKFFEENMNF
UniProt P09769, whole entry: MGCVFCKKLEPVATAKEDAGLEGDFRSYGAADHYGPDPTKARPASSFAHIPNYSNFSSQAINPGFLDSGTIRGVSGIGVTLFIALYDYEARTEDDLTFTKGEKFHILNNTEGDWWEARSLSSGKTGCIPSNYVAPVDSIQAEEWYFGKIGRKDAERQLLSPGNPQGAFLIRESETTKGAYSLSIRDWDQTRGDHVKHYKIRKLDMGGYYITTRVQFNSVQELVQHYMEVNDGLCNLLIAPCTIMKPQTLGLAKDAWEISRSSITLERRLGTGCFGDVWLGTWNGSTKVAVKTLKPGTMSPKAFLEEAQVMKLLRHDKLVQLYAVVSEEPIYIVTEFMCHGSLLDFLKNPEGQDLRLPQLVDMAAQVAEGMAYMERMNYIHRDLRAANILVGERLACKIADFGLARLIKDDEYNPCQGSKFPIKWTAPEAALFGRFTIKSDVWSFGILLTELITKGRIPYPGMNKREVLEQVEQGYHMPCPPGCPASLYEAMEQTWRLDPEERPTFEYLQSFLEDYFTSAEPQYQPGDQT
UniProt P57059, whole entry: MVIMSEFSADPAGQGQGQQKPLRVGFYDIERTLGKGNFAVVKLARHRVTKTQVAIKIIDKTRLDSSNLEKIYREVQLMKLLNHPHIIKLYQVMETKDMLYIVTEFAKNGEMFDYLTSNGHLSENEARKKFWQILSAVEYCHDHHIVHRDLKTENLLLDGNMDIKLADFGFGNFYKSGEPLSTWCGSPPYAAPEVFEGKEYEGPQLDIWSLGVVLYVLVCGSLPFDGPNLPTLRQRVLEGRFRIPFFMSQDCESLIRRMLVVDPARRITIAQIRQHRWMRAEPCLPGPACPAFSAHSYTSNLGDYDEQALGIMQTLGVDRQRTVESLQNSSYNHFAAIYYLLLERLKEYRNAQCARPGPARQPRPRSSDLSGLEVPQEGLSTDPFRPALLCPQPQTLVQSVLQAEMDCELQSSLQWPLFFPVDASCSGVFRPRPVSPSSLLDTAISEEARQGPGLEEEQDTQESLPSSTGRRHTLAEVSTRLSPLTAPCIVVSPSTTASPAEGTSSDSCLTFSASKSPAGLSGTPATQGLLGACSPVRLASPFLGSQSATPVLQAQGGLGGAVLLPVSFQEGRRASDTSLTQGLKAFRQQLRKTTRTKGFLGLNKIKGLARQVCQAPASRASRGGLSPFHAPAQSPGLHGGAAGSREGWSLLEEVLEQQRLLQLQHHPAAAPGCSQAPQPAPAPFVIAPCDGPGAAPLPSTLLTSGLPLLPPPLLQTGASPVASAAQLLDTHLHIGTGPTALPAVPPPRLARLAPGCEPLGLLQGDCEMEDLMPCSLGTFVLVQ
UniProt Q05397, whole entry: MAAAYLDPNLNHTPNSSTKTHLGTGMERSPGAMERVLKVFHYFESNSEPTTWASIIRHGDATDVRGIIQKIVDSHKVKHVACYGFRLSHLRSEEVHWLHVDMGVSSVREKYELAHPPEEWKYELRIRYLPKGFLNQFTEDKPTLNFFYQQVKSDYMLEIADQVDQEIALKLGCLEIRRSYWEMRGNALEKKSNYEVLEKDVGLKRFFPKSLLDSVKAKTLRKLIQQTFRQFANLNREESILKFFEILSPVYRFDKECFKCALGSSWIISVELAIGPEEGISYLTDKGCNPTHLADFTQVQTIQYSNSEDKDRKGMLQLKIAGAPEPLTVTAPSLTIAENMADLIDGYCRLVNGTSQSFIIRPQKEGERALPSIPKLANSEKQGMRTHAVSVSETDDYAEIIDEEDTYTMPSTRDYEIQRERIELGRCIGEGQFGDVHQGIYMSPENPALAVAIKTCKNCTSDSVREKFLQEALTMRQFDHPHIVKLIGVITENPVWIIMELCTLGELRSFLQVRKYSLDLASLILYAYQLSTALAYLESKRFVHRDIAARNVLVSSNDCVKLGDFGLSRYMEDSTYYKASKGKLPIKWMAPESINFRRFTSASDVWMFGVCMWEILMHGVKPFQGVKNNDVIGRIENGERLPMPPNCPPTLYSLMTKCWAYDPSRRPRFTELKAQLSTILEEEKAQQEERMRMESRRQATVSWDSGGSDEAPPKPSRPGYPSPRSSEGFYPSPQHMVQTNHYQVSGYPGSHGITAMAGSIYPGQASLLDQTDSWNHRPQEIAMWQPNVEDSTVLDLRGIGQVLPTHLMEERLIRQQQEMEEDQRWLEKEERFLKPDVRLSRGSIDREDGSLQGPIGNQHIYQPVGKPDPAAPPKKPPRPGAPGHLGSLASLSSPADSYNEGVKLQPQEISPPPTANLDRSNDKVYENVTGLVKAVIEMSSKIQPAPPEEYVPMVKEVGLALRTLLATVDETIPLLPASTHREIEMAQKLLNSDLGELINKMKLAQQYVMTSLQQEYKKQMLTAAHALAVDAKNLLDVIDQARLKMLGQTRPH
UniProt P23458, whole entry: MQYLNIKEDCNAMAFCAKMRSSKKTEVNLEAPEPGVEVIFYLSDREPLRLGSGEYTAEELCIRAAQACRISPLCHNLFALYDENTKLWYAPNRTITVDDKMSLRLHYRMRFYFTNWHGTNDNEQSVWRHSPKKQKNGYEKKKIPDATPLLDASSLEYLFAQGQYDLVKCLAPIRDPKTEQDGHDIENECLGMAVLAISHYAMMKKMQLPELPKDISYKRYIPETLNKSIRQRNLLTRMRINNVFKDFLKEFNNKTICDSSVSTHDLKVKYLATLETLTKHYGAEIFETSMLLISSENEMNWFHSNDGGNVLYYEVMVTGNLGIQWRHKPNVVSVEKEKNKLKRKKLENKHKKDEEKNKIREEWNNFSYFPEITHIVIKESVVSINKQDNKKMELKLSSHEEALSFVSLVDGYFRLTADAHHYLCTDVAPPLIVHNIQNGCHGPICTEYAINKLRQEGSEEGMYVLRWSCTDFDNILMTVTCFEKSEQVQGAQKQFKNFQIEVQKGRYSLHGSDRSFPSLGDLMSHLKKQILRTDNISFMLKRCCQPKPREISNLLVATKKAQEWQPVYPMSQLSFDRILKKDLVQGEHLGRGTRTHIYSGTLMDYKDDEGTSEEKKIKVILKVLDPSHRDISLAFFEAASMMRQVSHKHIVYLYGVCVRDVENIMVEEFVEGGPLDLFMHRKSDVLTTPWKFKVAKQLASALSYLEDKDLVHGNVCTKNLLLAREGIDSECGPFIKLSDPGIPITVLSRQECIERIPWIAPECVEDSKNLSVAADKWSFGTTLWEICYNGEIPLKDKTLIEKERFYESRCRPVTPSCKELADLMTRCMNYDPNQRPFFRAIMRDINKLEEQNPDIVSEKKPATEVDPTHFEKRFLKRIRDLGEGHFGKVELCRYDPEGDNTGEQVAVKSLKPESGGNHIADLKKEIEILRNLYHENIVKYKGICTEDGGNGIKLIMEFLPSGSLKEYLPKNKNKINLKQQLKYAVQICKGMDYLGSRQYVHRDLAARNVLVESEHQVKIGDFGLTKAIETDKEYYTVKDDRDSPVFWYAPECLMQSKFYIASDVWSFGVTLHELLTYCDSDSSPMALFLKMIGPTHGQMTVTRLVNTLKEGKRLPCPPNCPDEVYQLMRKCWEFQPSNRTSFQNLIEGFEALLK
UniProt Q16539, whole entry: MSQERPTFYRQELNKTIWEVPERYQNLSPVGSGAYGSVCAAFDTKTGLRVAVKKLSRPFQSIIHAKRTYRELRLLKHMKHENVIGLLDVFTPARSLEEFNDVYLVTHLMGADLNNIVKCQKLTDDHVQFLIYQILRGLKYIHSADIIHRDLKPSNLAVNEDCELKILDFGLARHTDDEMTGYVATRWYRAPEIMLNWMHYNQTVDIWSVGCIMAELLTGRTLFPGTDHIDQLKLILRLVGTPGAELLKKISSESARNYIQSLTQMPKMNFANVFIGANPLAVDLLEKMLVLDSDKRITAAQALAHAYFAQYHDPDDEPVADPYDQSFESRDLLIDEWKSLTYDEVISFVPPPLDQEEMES
UniProt O43318, whole entry: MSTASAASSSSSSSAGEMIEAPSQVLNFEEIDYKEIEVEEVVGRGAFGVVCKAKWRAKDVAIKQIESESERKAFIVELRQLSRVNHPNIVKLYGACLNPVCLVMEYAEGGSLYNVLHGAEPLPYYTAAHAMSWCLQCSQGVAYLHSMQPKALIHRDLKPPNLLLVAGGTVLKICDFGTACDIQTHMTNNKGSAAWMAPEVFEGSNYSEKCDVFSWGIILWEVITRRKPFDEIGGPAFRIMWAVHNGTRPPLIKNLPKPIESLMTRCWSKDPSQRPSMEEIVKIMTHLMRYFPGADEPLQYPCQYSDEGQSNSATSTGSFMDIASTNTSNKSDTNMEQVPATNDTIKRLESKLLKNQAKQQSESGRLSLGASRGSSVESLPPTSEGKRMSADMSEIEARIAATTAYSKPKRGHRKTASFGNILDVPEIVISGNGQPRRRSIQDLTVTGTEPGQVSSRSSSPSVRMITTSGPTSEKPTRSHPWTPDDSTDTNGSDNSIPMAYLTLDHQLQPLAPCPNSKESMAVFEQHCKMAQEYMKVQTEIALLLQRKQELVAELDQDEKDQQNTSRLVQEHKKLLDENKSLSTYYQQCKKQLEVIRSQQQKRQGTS

Experiments:
[1] = biological target: RAF1 (Homo sapiens, UniProt P04049); assay: Kinase panel inhibition, RAF1; conditions: 1 μM
[2] = system: SW620; assay: Cell growth inhibition, SW620 (CCK-8); conditions: read-out: Cell growth inhibition GI50, SW620, 72 hours
[3] = system: DLD-1; assay: Cell growth inhibition, DLD-1 (CCK-8); conditions: read-out: Cell growth inhibition GI50, DLD-1, 72 hours
[4] = biological target: full kinase panel (Homo sapiens, UniProt Q02763); assay: Full kinase panel inhibition by Example compounds 8 and 51 at 1 μM (Tables 11 to 14; kinase named in each table line); conditions: TIE2/TEK
[5] = biological target: full kinase panel (Homo sapiens, UniProt P42684); assay: as above; conditions: ABL2/ARG
[6] = biological target: full kinase panel (Homo sapiens, UniProt Q15569); assay: as above; conditions: TESK1
[7] = biological target: full kinase panel (Homo sapiens, UniProt P51957); assay: as above; conditions: NEK4
[8] = biological target: full kinase panel (Homo sapiens, UniProt O60674); assay: as above; conditions: JAK2
[9] = biological target: full kinase panel (Homo sapiens, UniProt Q08345); assay: as above; conditions: DDR1
[10] = biological target: full kinase panel (Homo sapiens, UniProt P51451); assay: as above; conditions: BLK
[11] = biological target: full kinase panel (Homo sapiens, UniProt P09769); assay: as above; conditions: FGR
[12] = biological target: full kinase panel (Homo sapiens, UniProt P54762); assay: as above; conditions: EPHB1
[13] = biological target: full kinase panel (Homo sapiens, UniProt P54764); assay: as above; conditions: EPHA4
[14] = biological target: full kinase panel (Homo sapiens, UniProt P06241); assay: as above; conditions: FYN
[15] = biological target: full kinase panel (Homo sapiens, UniProt P09619); assay: as above; conditions: PDGFRB
[16] = biological target: full kinase panel (Homo sapiens, UniProt Q8IVH8); assay: as above; conditions: GLK/MAP4K3
[17] = biological target: full kinase panel (Homo sapiens, UniProt Q9NYL2); assay: as above; conditions: ZAK/MLTK
[18] = biological target: full kinase panel (Homo sapiens, UniProt P57059); assay: as above; conditions: SIK1
[19] = biological target: full kinase panel (Homo sapiens, UniProt P21802); assay: as above; conditions: FGFR2
[20] = biological target: full kinase panel (Homo sapiens, UniProt Q05397); assay: as above; conditions: FAK/PTK2
[21] = biological target: full kinase panel (Homo sapiens, UniProt Q99759); assay: as above; conditions: MEKK3
[22] = biological target: full kinase panel (Homo sapiens, UniProt P04626); assay: as above; conditions: ERBB2/HER2
[23] = biological target: full kinase panel (Homo sapiens, UniProt P08631); assay: as above; conditions: HCK
[24] = biological target: full kinase panel (Homo sapiens, UniProt Q13163); assay: as above; conditions: MEK5
[25] = biological target: full kinase panel (Homo sapiens, UniProt O95819); assay: as above; conditions: HGK/MAP4K4
[26] = biological target: full kinase panel (Homo sapiens, UniProt Q12851); assay: as above; conditions: GCK/MAP4K2
[27] = biological target: full kinase panel (Homo sapiens, UniProt P00533); assay: as above; conditions: EGFR
[28] = biological target: full kinase panel (Homo sapiens, UniProt Q16288); assay: as above; conditions: TRKC
[29] = biological target: full kinase panel (Homo sapiens, UniProt P10398); assay: as above; conditions: ARAF
[30] = biological target: full kinase panel (Homo sapiens, UniProt Q13470); assay: as above; conditions: TNK1
[31] = biological target: full kinase panel (Homo sapiens, UniProt Q96S53); assay: as above; conditions: TESK2
[32] = biological target: full kinase panel (Homo sapiens, UniProt P35968); assay: as above; conditions: KDR/VEGFR2
[33] = biological target: full kinase panel (Homo sapiens, UniProt P23458); assay: as above; conditions: JAK1
[34] = biological target: full kinase panel (Homo sapiens, UniProt Q9UF33); assay: as above; conditions: EPHA6
[35] = biological target: full kinase panel (Homo sapiens, UniProt Q16620); assay: as above; conditions: TRKB
[36] = biological target: full kinase panel (Homo sapiens, UniProt P42685); assay: as above; conditions: FRK/PTK5
[37] = biological target: full kinase panel (Homo sapiens, UniProt Q7L7X3); assay: as above; conditions: TAOK1
[38] = biological target: full kinase panel (Homo sapiens, UniProt Q16539); assay: as above; conditions: P38A/MAPK14
[39] = biological target: full kinase panel (Homo sapiens, UniProt P07947); assay: as above; conditions: YES/YES1
[40] = biological target: full kinase panel (Homo sapiens, UniProt O43318); assay: as above; conditions: TAK1

- GI50 [2]: < 5 µM
- GI50 [3]: < 5 µM
Compound: Cc1ccc(Nc2ncc3c(n2)C2(CC2)C(=O)N(c2cc(NC(=O)c4cccc(C(F)(F)F)c4)ccc2C)C3)cn1
- kinase inhibition (residual enzyme activity) [1]: ◯ (residual enzyme activity values were 40% or less, i.e., inhibited by 60% or more)
- kinase inhibition (residual enzyme activity) [4]: ◯ (residual enzyme activity values were 40% or less, i.e., inhibited by 60% or more)
- kinase inhibition (residual enzyme activity) [5]: ◯ (residual enzyme activity values were 40% or less, i.e., inhibited by 60% or more)
- kinase inhibition (residual enzyme activity) [6]: ◯ (residual enzyme activity values were 40% or less, i.e., inhibited by 60% or more)
- kinase inhibition (residual enzyme activity) [7]: ◯ (residual enzyme activity values were 40% or less, i.e., inhibited by 60% or more)
- kinase inhibition (residual enzyme activity) [8]: ◯ (residual enzyme activity values were 40% or less, i.e., inhibited by 60% or more)
- kinase inhibition (residual enzyme activity) [9]: ◯ (residual enzyme activity values were 40% or less, i.e., inhibited by 60% or more)
- kinase inhibition (residual enzyme activity) [10]: ◯ (residual enzyme activity values were 40% or less, i.e., inhibited by 60% or more)
- kinase inhibition (residual enzyme activity) [11]: ◯ (residual enzyme activity values were 40% or less, i.e., inhibited by 60% or more)
- kinase inhibition (residual enzyme activity) [12]: ◯ (residual enzyme activity values were 40% or less, i.e., inhibited by 60% or more)
- kinase inhibition (residual enzyme activity) [13]: ◯ (residual enzyme activity values were 40% or less, i.e., inhibited by 60% or more)
- kinase inhibition (residual enzyme activity) [14]: ◯ (residual enzyme activity values were 40% or less, i.e., inhibited by 60% or more)
- kinase inhibition (residual enzyme activity) [15]: ◯ (residual enzyme activity values were 40% or less, i.e., inhibited by 60% or more)
- kinase inhibition (residual enzyme activity) [16]: ◯ (residual enzyme activity values were 40% or less, i.e., inhibited by 60% or more)
- kinase inhibition (residual enzyme activity) [17]: ◯ (residual enzyme activity values were 40% or less, i.e., inhibited by 60% or more)
- kinase inhibition (residual enzyme activity) [18]: ◯ (residual enzyme activity values were 40% or less, i.e., inhibited by 60% or more)
- kinase inhibition (residual enzyme activity) [19]: ◯ (residual enzyme activity values were 40% or less, i.e., inhibited by 60% or more)
- kinase inhibition (residual enzyme activity) [20]: ◯ (residual enzyme activity values were 40% or less, i.e., inhibited by 60% or more)
- kinase inhibition (residual enzyme activity) [21]: ◯ (residual enzyme activity values were 40% or less, i.e., inhibited by 60% or more)
- kinase inhibition (residual enzyme activity) [22]: ◯ (residual enzyme activity values were 40% or less, i.e., inhibited by 60% or more)
- kinase inhibition (residual enzyme activity) [23]: ◯ (residual enzyme activity values were 40% or less, i.e., inhibited by 60% or more)
- kinase inhibition (residual enzyme activity) [24]: ◯ (residual enzyme activity values were 40% or less, i.e., inhibited by 60% or more)
- kinase inhibition (residual enzyme activity) [25]: ◯ (residual enzyme activity values were 40% or less, i.e., inhibited by 60% or more)
- kinase inhibition (residual enzyme activity) [26]: ◯ (residual enzyme activity values were 40% or less, i.e., inhibited by 60% or more)
- kinase inhibition (residual enzyme activity) [27]: ◯ (residual enzyme activity values were 40% or less, i.e., inhibited by 60% or more)
- kinase inhibition (residual enzyme activity) [28]: ◯ (residual enzyme activity values were 40% or less, i.e., inhibited by 60% or more)
- kinase inhibition (residual enzyme activity) [29]: ◯ (residual enzyme activity values were 40% or less, i.e., inhibited by 60% or more)
- kinase inhibition (residual enzyme activity) [30]: ◯ (residual enzyme activity values were 40% or less, i.e., inhibited by 60% or more)
- kinase inhibition (residual enzyme activity) [31]: ◯ (residual enzyme activity values were 40% or less, i.e., inhibited by 60% or more)
- kinase inhibition (residual enzyme activity) [32]: ◯ (residual enzyme activity values were 40% or less, i.e., inhibited by 60% or more)
- kinase inhibition (residual enzyme activity) [33]: ◯ (residual enzyme activity values were 40% or less, i.e., inhibited by 60% or more)
- kinase inhibition (residual enzyme activity) [34]: ◯ (residual enzyme activity values were 40% or less, i.e., inhibited by 60% or more)
- kinase inhibition (residual enzyme activity) [35]: ◯ (residual enzyme activity values were 40% or less, i.e., inhibited by 60% or more)
- kinase inhibition (residual enzyme activity) [36]: ◯ (residual enzyme activity values were 40% or less, i.e., inhibited by 60% or more)
- kinase inhibition (residual enzyme activity) [37]: ◯ (residual enzyme activity values were 40% or less, i.e., inhibited by 60% or more)
- kinase inhibition (residual enzyme activity) [38]: ◯ (residual enzyme activity values were 40% or less, i.e., inhibited by 60% or more)
- kinase inhibition (residual enzyme activity) [39]: ◯ (residual enzyme activity values were 40% or less, i.e., inhibited by 60% or more)
- kinase inhibition (residual enzyme activity) [40]: ◯ (residual enzyme activity values were 40% or less, i.e., inhibited by 60% or more)
